Experimental data taken from patent EP0434750B1 (priority 1988, dated 1990).

The chains behind the UniProt entries cited, without tags or fusion partners.
UniProt Q61327, whole entry: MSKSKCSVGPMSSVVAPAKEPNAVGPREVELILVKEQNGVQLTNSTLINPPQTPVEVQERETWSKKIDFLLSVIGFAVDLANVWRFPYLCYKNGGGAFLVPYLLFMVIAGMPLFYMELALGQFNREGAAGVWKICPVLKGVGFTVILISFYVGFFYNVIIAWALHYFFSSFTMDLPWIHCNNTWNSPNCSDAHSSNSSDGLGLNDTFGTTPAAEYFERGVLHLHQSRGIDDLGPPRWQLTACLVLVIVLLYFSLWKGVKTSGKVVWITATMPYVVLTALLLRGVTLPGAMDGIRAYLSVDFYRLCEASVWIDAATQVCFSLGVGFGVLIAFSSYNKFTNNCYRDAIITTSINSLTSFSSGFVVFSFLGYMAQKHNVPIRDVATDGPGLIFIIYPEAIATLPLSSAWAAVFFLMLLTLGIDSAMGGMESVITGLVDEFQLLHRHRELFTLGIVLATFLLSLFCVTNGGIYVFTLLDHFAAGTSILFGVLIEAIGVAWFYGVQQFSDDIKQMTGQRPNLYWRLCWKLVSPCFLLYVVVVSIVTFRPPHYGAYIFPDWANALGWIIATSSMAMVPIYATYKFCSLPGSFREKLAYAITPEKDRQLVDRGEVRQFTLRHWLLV

Molecular target: [^3H]mazindol binding site, striatal membranes (Mus musculus, UniProt Q61327)
Experiment: biochemical
Procedure: This group is used only for anatomical studies looking for cell loss in the substantive nigra cells (SNc). All other studies are performed in C57 black mice.

Which Kd does the source give for `OC1(c2ccc(Cl)cc2)c2ccccc2C2=NCCN21` (stereo not shown) [[^3H]Mazindol, mazindol] here?
Its Kd is 17.6 nM.
